Reference: patent US11584748B2, “Spirocyclic compounds” (priority 2018, dated 2023)

By UniProt entry, the sequences of proteins in these tests, tags left out. Where a name states a change or a piece, a line headed by the entry shows the natural chain unless it says otherwise.
UniProt Q96SW2: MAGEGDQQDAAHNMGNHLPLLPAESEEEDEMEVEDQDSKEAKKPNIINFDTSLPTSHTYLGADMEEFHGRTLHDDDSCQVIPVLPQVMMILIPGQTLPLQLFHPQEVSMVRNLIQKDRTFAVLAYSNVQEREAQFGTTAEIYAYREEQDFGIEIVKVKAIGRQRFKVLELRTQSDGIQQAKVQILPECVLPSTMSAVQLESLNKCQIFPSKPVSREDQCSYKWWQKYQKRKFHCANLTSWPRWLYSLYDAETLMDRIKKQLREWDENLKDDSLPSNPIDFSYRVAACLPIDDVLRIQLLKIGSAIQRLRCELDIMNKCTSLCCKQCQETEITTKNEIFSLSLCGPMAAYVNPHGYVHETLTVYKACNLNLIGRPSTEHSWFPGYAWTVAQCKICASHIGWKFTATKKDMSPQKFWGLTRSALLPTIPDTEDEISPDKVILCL

Target: hCereblon(M1-L442)_hDDB1(M1-H1140) (Homo sapiens (Human), UniProt Q96SW2)
Experiment: Fluorescence direct binding (tryptophan fluorescence titration)
Conditions: 20° C., excitation 280 nm, emission 340 nm, 50 mM Hepes 7.4 200 mM NaCl; read-out: Fluorescence h-Cereblon_DDB1 Mean Kd_EQ

Substance | pKd
2-(4-nitrophenyl)- 2,7-diazaspiro[4.5] decane-6,8-dione [Example 10] | 9.00
2-(4-nitrophenyl)- 2,7-diazaspiro[4.5] decane-6,8-dione [Example 11] | 8.30

pKd: −log10 of the molar value.
